The results in this text go back to US9187658B2, “Photopolymerizable inkjet ink, ink cartridge, and inkjet recording device” (Ricoh Company, Ltd., priority 2013, dated 2015).

The test system of this data set is female mice. Briefly: Skin sensitization test, local lymph node assay (LLNA, OECD test guideline 429), BrdU intake by ELISA. The conditions noted are these: test substance 50.0 w/v % in acetone/olive oil 4:1, 25 μL/auricle once a day for 3 days.

“Ethyleneoxide-modified trimethylolpropane trimethacrylate [TMPT-3EO]”: the “SI value (Stimulation Index)” value is given as 1.0.
